Measured values as given in the kinase profiling compilation of Christmann-Franck et al. (2016).

The chains behind the UniProt entries cited, without tags or fusion partners. Where a name states a change or a piece, a line headed by the entry shows the natural chain unless it says otherwise.
UniProt P53779: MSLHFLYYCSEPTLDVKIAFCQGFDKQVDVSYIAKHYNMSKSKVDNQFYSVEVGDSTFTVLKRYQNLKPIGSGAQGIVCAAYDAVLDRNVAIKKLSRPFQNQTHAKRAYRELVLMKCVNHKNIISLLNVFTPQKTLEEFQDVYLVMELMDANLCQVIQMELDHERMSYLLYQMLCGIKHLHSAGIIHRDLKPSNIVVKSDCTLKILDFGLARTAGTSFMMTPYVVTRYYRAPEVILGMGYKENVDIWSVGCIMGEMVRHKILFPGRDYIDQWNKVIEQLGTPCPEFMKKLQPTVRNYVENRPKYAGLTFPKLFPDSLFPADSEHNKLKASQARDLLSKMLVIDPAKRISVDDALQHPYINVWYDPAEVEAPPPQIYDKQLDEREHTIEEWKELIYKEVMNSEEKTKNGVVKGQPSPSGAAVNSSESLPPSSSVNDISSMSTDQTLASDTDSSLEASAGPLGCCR

Biological target: MAPK10 (human) (UniProt P53779)
Experiment: KINOMEscan competition binding

Kd: 22 nM
Compound: O=C1c2ccccc2-c2n[nH]c3cccc1c23
